PubChem BioAssay AID2805 (Sanford-Burnham Center for Chemical Genomics, 2010)
The entries are a selection whose mix differs from that of the whole data set. Some results for these compounds are left out of this collection, so the calls shown say nothing about other tests. Activity calls are given as the source filed them.

The molecules below were run on intestinal alkaline phosphatase [Mus musculus] (assay: mouse intestinal phosphatase enzyme activation – biochemical, luminescence, uHTS, primary screen (AID 2805)). Conditions: muIAP, CDP-Star luminescence, 30 min; at 10 µM; stronger effect = higher value; 1 = vehicle-only enzyme signal, 0 = enzyme-free wells.
Outline: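 Assay system: mouse IAP enzyme; reagent: chemiluminescent substrate CDP-Star; dosing: test compounds delivered from DMSO solution; schedule: 30 min at room temperature; measured by: luminescence from enzymatic CDP-Star hydrolysis; controls: DMSO-only wells and no-enzyme negative control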
With `O=C(OC1CN2CCC1CC2)C(CO)(c1ccccc1)c1ccccc1` (centres undefined) the activation factor was inactive: 1.04.
`CN(C)c1cccc(C(=O)NCC2(N(C)C)CCCCC2)c1` was tested, and the activation factor was inactive: 0.96.
In the case of `CC(C)Oc1ccc(C(=O)NCC2(N(C)C)CCCCC2)cc1`, the activation factor is reported as inactive: 1.01.
For `COc1ccc(Br)c(C(=O)NCC2(N3CCCCC3)CCCCC2)c1`, the activation factor was inactive: 0.956.
With `COc1cc(C(=O)NCC2(N(C)C)CCCCC2)c([N+](=O)[O-])cc1OC` the activation factor was inactive: 1.04.
For `CN(C)C1(CNC(=O)c2ccc(Br)cc2)CCCCC1`, the activation factor was inactive: 1.12.
`O=C(NCC1(N2CCCCC2)CCCCC1)c1cccc(Cl)c1` was tested, and the activation factor was inactive: 1.01.
In the case of `COc1ccc(Cl)cc1C(=O)NCC1(N(C)C)CCCCC1`, the activation factor is reported as inactive: 1.04.
In the case of `COc1cccc(C(=O)NCC2(N3CCCCC3)CCCCC2)c1`, the activation factor is reported as inactive: 0.934.
In the case of `CN(C)C1CCCC1OC(=O)C(O)(c1ccccc1)c1ccccc1` (centres undefined), the activation factor is reported as inactive: 1.07.
`CN(C)c1ccc(C(=O)NCC2(N(C)C)CCCCC2)cc1` was tested, and the activation factor was inactive: 1.03.
With `Cc1ccccc1C(=O)NCC1(N2CCCCC2)CCCCC1` the activation factor was inactive: 1.
For `O=C(NCC1(N2CCCCC2)CCCCC1)c1cccc(Br)c1`, the activation factor was inactive: 1.07.
`Cc1cc(C(=O)NCC2(N3CCCCC3)CCCCC2)ccc1[N+](=O)[O-]` was tested, and the activation factor was inactive: 1.06.
For `CCN1CCCC(OC(=O)C2(O)c3ccccc3C=Cc3ccccc32)C1` (centres undefined), the activation factor was inactive: 1.
`COc1ccc(C(=O)NCC2(N(C)C)CCCCC2)cc1` was tested, and the activation factor was inactive: 1.03.
For `O=C(NCC1(N2CCCCC2)CCCCC1)c1cc(F)c(F)cc1Cl`, the activation factor was inactive: 1.
For `C=CCN1CCN(CCOC(=O)C(O)(c2ccccc2)c2ccccc2)CC1`, the activation factor was inactive: 1.06.
With `CN1[C@@H]2CC[C@H]1CC(OC(=O)C(O)(c1ccccc1)c1ccccc1)C2` (some centres undefined) the activation factor was inactive: 1.05.
In the case of `O=C(NCC1(N2CCCCC2)CCCCC1)c1cc([N+](=O)[O-])ccc1Cl`, the activation factor is reported as inactive: 0.959.
In the case of `Cc1ccc(C(=O)NCC2(N3CCCCC3)CCCCC2)cc1`, the activation factor is reported as inactive: 1.
`CC(C)N1C(=O)CC2(CCN(CCOC(=O)C(O)(c3ccccc3)c3ccccc3)CC2)C1=O` was tested, and the activation factor was inactive: 1.02.
For `COc1cc(SC)ccc1C(=O)NCC1(N(C)C)CCCCC1`, the activation factor was inactive: 1.04.
With `CCN(CC)CC(C)C(C)OC(=O)C(O)(c1ccccc1)c1ccccc1` (centres undefined) the activation factor was inactive: 0.982.
